Reference: ChEMBL document CHEMBL3751796, “Structure-Based Discovery of Novel Cyclophilin A Inhibitors for the Treatment of Hepatitis C Virus Infections” (J Med Chem, 2015)

Protein sequences, listed by entry. Tags and fused reporters are not part of them. Lines headed by an entry give the natural chain unless they say otherwise; changes in a name come on top.
UniProt P23284: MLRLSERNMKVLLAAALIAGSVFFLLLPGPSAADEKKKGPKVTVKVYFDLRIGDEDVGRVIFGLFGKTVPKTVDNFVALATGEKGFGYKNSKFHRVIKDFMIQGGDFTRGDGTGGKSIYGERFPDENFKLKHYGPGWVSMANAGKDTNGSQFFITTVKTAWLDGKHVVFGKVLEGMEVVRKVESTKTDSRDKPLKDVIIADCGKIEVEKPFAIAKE
UniProt P62937, whole entry, looked up: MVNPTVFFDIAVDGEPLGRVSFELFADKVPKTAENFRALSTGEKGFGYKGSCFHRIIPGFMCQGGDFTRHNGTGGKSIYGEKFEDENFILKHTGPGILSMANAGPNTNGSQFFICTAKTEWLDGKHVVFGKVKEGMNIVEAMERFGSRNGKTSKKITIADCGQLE

How the values were obtained:
[1] = molecular target: T1, Peptidyl-prolyl cis-trans isomerase B (Homo sapiens, UniProt P23284); test: Binding affinity to Cyclophilin B (unknown origin) by surface plasmon resonance analysis
[2] = molecular target: T2, Peptidyl-prolyl cis-trans isomerase A (Homo sapiens, UniProt P62937); details: 0.625 nM
[3] = molecular target: T1, Peptidyl-prolyl cis-trans isomerase B; details: 10 to 30 uM
[4] = molecular target: T2, Peptidyl-prolyl cis-trans isomerase A

Structure (SMILES): COc1cc(C(C(=O)NC2CCCCC2)N(C(=O)Cc2c[nH]c3ccccc23)c2ccc(C(C)C)cc2)cc(OC)c1OC (centres undefined)
- Ka [1]: 455 M⁻¹ s⁻¹
- Ka [2]: 3.2 ×10³ /M/s
- Ka [3]: 213 M⁻¹ s⁻¹
- Ka [4]: 8.1 ×10³ /M/s
